We go through 1 compound from BindingDB's records for 2993614 (1985).

Chains of the proteins cited; added tags and fusions are not shown.
UniProt P07861, whole entry, looked up: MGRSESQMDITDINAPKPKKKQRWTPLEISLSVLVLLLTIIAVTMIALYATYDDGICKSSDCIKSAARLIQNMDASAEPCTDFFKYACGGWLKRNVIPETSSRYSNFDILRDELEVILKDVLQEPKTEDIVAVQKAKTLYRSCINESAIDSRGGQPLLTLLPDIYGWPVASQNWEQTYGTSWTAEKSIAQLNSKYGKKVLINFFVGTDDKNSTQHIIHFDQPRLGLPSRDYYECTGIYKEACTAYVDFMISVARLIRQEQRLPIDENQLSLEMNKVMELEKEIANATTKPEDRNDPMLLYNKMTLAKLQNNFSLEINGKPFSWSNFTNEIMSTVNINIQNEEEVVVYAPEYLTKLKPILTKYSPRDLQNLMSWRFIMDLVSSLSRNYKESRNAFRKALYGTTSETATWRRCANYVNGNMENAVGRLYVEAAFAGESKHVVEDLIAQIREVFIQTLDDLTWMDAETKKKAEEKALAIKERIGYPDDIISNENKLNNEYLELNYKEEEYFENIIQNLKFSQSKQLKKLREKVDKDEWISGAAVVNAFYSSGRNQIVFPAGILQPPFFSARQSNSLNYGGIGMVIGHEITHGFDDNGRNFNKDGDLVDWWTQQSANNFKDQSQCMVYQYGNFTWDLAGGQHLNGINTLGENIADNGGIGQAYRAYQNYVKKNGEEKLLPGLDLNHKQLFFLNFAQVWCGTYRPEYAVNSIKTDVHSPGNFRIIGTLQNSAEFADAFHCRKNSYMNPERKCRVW

The structures appear in SMILES notation.

In this assay the target is Neprilysin (Rattus norvegicus, UniProt P07861).

Usually Ki stands for a dissociation constant, usually derived from enzyme kinetics or from competition with a known ligand. A higher Ki goes with a looser hold on the target. Turning to `CC(C)CC(NC(=O)C(Cc1ccccc1)NP(C)(O)=S)C(=O)O` (stereo unspecified), the inhibition constant (Ki) came out at 420 nM.
